Literature values, collected in patent US10858626B2, “Adoptive immunotherapy for treating cancer” (UNIVERSITÉ DE LAUSANNE, priority 2014, dated 2020).

By UniProt entry, the sequences of proteins in these tests, tags left out. Residues count along the entry.
UniProt P35968, 20-1356, species assumed: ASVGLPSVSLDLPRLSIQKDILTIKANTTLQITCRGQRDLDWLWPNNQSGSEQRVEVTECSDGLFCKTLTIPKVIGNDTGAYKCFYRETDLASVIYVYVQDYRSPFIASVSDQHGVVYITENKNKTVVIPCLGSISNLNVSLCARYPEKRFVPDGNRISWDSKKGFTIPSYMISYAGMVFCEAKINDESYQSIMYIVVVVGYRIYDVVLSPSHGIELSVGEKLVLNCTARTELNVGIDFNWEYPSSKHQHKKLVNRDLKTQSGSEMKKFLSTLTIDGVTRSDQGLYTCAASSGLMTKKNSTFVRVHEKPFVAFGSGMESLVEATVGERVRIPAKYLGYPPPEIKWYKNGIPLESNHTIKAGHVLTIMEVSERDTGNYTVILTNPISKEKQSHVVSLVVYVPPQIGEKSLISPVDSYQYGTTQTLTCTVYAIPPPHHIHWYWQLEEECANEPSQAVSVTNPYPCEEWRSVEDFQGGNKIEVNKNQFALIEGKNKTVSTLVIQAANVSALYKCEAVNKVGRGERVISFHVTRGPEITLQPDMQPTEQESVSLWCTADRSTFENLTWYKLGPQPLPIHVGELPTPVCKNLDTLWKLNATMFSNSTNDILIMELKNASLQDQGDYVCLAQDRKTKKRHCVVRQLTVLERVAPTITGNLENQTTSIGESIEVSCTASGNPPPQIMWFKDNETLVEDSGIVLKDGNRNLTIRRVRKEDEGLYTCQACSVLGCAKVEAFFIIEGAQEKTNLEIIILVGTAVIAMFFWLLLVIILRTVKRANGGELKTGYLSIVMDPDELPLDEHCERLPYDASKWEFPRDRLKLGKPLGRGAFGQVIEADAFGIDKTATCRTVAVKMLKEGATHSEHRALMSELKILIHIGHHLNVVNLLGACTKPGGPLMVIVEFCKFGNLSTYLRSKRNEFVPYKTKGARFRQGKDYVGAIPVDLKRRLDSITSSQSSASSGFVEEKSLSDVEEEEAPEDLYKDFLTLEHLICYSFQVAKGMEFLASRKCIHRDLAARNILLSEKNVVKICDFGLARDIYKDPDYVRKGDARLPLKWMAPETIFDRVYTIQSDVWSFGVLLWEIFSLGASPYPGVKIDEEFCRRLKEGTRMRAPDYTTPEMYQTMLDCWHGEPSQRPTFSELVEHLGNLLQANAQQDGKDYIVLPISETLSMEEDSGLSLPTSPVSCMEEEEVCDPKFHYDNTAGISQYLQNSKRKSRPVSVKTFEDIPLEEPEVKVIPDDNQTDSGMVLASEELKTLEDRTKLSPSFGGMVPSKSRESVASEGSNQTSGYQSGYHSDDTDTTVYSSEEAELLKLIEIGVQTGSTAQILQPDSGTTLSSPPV

Target: VEGFR-2 (Homo sapiens, UniProt P35968)
Details: cited from earlier work

## O=C(Nc1cc(Oc2cc(F)c(NC(=O)C3(C(=O)Nc4ccc(F)cc4)CC3)cc2F)ccn1)C1CC1 [Altiratinib (DCC-2701), Altiratinib]
  IC50: 4 nM
